Among the data in patent publication US8846948B2, “Compounds” (Boehringer Ingelheim International GmbH, priority 2011, dated 2014) are EC50 values, retold here.

Sequences of proteins named here, by UniProt entry; tags and fusion partners are left off. Residues count along the entry.
UniProt P41594, 21-1212 limits assumed: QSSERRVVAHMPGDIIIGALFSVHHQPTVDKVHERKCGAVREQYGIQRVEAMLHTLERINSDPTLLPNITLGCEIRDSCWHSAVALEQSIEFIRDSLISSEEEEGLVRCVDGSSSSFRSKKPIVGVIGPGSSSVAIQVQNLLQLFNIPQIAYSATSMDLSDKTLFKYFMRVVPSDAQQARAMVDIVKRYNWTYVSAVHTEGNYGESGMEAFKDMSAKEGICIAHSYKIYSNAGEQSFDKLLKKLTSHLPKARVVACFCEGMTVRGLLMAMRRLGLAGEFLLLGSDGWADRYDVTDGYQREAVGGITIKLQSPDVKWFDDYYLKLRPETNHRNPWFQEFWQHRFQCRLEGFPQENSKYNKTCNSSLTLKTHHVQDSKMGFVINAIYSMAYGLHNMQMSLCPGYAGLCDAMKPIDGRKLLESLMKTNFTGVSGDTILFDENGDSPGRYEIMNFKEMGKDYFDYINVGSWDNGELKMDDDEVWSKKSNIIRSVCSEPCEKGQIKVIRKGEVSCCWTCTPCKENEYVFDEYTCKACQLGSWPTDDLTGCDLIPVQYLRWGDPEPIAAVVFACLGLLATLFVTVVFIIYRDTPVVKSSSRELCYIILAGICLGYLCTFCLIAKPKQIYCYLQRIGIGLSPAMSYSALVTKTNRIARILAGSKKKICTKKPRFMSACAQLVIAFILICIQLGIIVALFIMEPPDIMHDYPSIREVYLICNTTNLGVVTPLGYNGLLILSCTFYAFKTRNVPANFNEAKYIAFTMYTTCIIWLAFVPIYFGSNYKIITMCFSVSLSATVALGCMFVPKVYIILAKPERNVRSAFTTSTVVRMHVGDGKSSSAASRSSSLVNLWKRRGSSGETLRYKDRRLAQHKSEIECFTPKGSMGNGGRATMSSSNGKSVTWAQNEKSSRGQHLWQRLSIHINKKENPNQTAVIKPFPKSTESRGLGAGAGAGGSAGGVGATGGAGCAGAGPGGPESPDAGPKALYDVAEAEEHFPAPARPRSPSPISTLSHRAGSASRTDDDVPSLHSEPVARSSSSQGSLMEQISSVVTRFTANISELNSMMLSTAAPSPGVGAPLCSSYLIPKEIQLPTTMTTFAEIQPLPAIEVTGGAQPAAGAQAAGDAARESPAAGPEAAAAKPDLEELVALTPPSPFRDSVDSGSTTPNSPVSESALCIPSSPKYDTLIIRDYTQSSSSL

The target of this test is human recombinant mGluR5 (Homo sapiens, UniProt P41594). The test is described as follows: Positive modulation of mGluR5, calcium based FLIPR assay. The following applies: EC50 of the modulation; HEK 293 cell line expressing human recombinant mGluR5; peak height of Ca release fluorescence signal after glutamate at approximately 5% basal stimulation. On the procedure:
The positive modulation of mGluR5 is measured in a HEK 293 cell line expressing human recombinant mGluR5 and is detected with calcium based FLIPR assay. The cells are cultured with DMEM supplemented with 10% FCS, 2 μg/mL tetracycline, 100 μg/mL hygromycin and 500 μg/mL gneticin. The cell culture media is exchanged for tetracycline-free cell culture media 3-7 days before the assay. One day before the assay the cell culture medium is exchanged to DMEM without glutamine and phenol red and supplemented with 10% FCS, 100 μg/mL hygromycin and 500 μg/mL geneticin. On the assay day, the medium of the subconfluent cultures is removed and the cells are detached by addition of 2.5 ml EDTA (0.02%) per 175 cm2 culture flask for 1 minute. […]
20 μl of each compound solution are then transferred to the assay plate and the Ca2+ kinetic is measured to determine any intrinsic compound activity. After 5 mM incubation in the FLIPR device, the second stimulation with 20 μl of glutamate in Ringer solution (glutamate concentration adjusted to approximately 5% basal stimulation of the maximal possible glutamate effect) is added and the kinetic Ca2+ response of the wells was measured for the modulation effect.
The peak height of the Ca release related fluorescence signal (9-66) is used for the EC50. The EC50 of the modulation is calculated over a nonlinear regression with GraphPad Prism (Table 1).

Usually EC50 stands for the concentration at which the effect is half-maximal. Consider `O=C(Cn1cc(-c2ccccc2)nc1-c1ccc(F)cc1)N1CCN(c2ccccn2)CC1`, for which the concentration for a half-maximal effect (EC50) worked out at 851 nM.
